# Ab-14 heavy chain CDR variants: yeast mating affinities

Target: peptide PDVDLGDISGINAS, taken from heptad repeat 2 (HR2) of SARS-CoV-2 spike.

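The parent was found by panning a naive human phage display library on the peptide. The variants were designed computationally from a first round of random CDR variants and then made and measured. Their group label is 14H_En_HC (En: ensemble of fine-tuned language models; HC: hill climbing; a sequence that several methods proposed may carry one label only). The scFvs were displayed on barcoded MATa yeast, the peptide on MATalpha yeast. Mating (16 h, 30 °C) was followed by selection of diploids and sequencing of their barcodes. The ratio of observed to expected reads was calibrated, replicate by replicate, on BCL2-family standards whose Kd was known from biolayer interferometry. The assay was run in six technical replicates.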

Parent: Ab-14, a human scFv built as VH, three GGGGS repeats, VL. Only the CDRs of the heavy chain vary.
VH: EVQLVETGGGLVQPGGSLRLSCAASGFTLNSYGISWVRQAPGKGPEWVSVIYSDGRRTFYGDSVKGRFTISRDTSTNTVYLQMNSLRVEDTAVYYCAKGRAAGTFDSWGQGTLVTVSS
VL: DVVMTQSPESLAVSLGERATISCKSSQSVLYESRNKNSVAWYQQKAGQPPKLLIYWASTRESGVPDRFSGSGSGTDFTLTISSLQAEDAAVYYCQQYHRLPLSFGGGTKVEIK

Each variant is given by its three heavy chain CDRs, as the data file delimits them; those of the parent are GFTLNSYGIS, VIYSDGRRTFYGDSVK, GRAAGTFDS.
The read-out is the apparent dissociation constant on a log10 scale (nM): the lower, the stronger.
"ND" means that the variant was in the library but no mating with the target was seen in that replicate; the authors take this as a sign of poor binding, and no number exists.
In the paper, a design with two or fewer of six values counts as a poor binder.

CDR-H1,CDR-H2,CDR-H3,log10 Kd (nM) by replicate,control signals
GFDLNEYGIS,VIYADGQRTFYSDSVK,GEIAGTFDS,-0.72 / -0.77 / -0.94 / -0.98 / -1.00 / -0.62,0 of 18
GFDLNEYGIS,VIYADGRRTAYSDSVK,GEIAGTFDV,-0.54 / -0.75 / -0.79 / -1.07 / -1.05 / -0.83,0 of 18
GFDINEYGIS,VIYADGRRTFYTDSVK,GGNAGTFDK,-0.30 / -0.98 / -0.28 / -0.96 / -0.60 / -0.69,0 of 18
GFNLNEYGIS,VIYADGKRTFYADSVK,GGNAGTFDV,-0.31 / -0.36 / -0.62 / -0.70 / -0.54 / -0.58,1 of 18 (2.57)
GFDLNEYGIS,VIYADGRRTFYADSVK,GENAGFFDV,ND / ND / ND / 2.72 / 0.89 / ND,0 of 18
GFDLNEYGIS,VIYADGRRTFYADSVK,GELAGTFDV,-0.42 / -0.63 / -0.72 / -0.79 / -0.48 / -0.51,0 of 18
GFDLNEYGIS,VIYADGRRTAYDDSVK,GEAAGTFDQ,-0.68 / -0.58 / -0.96 / -0.96 / -0.72 / -0.75,0 of 18
GFDLNEYGIS,VIYADGKRTAYADSVK,GEAAGTFDQ,-0.15 / -0.43 / -0.72 / -0.34 / -0.31 / -0.49,1 of 18 (1.33)
GFDLNEYGIS,VIYADGRRTFYTDSVK,GSNAGTFDS,-0.63 / -0.69 / -0.86 / -0.90 / -0.54 / -0.51,1 of 18 (1.94)
GFDINEYGIS,VIYADGRRTYYADSVK,GEAAGTFDE,-0.19 / -0.06 / -0.33 / -0.47 / -0.18 / -0.02,1 of 18 (2.79)
GFDLNEYGIS,VIYADGRRTQYIDSVK,GEQAGTFDE,-0.40 / -0.79 / -1.22 / -1.22 / -0.60 / 0.05,0 of 18
GFDLNEYGIS,VIYADGRRTFYIDSVK,GEIAGTFIM,0.22 / 0.84 / -0.09 / -0.32 / 0.70 / ND,0 of 18
GFDLNEYGIS,VIYADGKRTFYADSVK,GEAAGTFDI,-0.20 / -0.26 / -0.44 / -0.65 / -0.39 / -0.48,0 of 18
GFDLDEYGIS,VIYADGRRTFYADSVK,GELAGTFDL,-0.46 / 0.92 / 0.05 / -0.93 / -0.64 / ND,0 of 18
GFDLNEYGIS,VIYADGQRTFYADSVK,GEIAGTFDF,-0.30 / -0.20 / -0.51 / -0.47 / -0.27 / -0.59,0 of 18
GFDLNEYGIS,VIYADGRRTFYADSVK,GNHAGTFNV,0.17 / 0.01 / -0.29 / 0.34 / -0.59 / -0.18,0 of 18
GFDLNEYGIS,VIYADGRRTFYADSVK,GKNAGTIFV,1.47 / 2.11 / 1.18 / 1.60 / 1.83 / 1.57,1 of 18 (2.30)
GFDLNEYGIS,VIYADGRRTFYQDSVK,GETAGTFDQ,ND / -0.39 / -0.17 / -0.70 / -0.61 / -0.03,0 of 18
GFDLEDYGIS,VIYADGMRTAYIDSVK,GEAAGTFDV,0.43 / 0.48 / 0.36 / 0.78 / 0.56 / 0.20,0 of 18
GFDLEEYGIS,VIYADGMRTFYSDSVK,GEAAGTFDS,0.40 / 0.77 / 0.19 / 0.18 / 1.74 / 0.88,0 of 18
GFDLEDYGIS,VIYADGKRTAYADSVK,GEIAGTFDV,-0.33 / -0.33 / 0.08 / -0.38 / -0.50 / -0.43,0 of 18
GFDLDEYGIS,VIYADGRRTFYADSVK,GNLAGTFDS,-0.30 / -0.06 / -0.32 / -0.05 / -0.42 / -0.29,0 of 18
GFNLDEYGIS,VIYADGLRTFYADSVK,GQVAGTFLM,0.89 / 0.49 / 0.46 / 0.40 / 0.14 / 0.61,0 of 18
GFDINEYGIS,VIYADGRRTFYADSVK,GNQGGTFDL,ND / ND / ND / ND / ND / ND,0 of 18
GFDLNEYGIS,VIYADGRRTFYTDSVK,GEVAGTFDS,-0.56 / -0.56 / -0.84 / -0.88 / -0.77 / -0.50,0 of 18
GFGLDEYGIS,VIYADGKRTFYADSVK,GENAGTFDM,1.49 / 1.68 / 1.70 / 2.32 / 1.32 / 1.54,1 of 18 (1.61)
GFDLNEYGIS,VIYADGFRTFYTDSVK,GEFAGTFDV,-0.32 / 0.09 / -0.22 / -0.27 / -0.70 / 0.27,0 of 18
GFDLNEYGIS,VIYADGRRTFYTDSVK,GENAGTFDM,-0.10 / -0.36 / -0.11 / -0.55 / -0.73 / -0.25,0 of 18
GFDLNEYGIS,VIYADGRRTFYADSVK,GNTAGTFNV,-0.33 / -0.50 / -0.46 / -0.64 / -0.25 / -0.18,1 of 18 (2.23)
GFKLDEYGIS,VIYADGRRTFYADSVK,GEAAGTFDI,-0.16 / -0.56 / -0.90 / -0.84 / -0.60 / -0.30,0 of 18
GFDLNEYGIS,VIYADGRRTAYIDSVK,GTNAGTFDQ,ND / ND / ND / 2.10 / ND / ND,1 of 18 (2.21)
GFDLNEYGIS,VIYADGRRTFYKDSVK,GEAAGTFDE,0.97 / -0.31 / -0.35 / -0.66 / -0.65 / -0.54,0 of 18
GFDLNEYGIS,VIYADGMRTFYTDSVK,GEVAGTFDF,1.57 / 0.08 / 0.25 / 0.87 / 0.18 / 0.39,0 of 18
GFDLNEYGIS,VIYADGVRTQYIDSVK,GNEAGTFDS,-0.01 / 0.58 / -0.31 / 0.37 / -0.04 / 0.09,0 of 18
GFDLNEYGIS,VIYADGMRTFYDDSVK,GQLAGTFDA,-1.52 / -1.35 / ND / -2.31 / -1.07 / -1.47,0 of 18
GFDLNEYGIS,VIYADGQRTFYTDSVK,GEVAGTFDS,-0.03 / -0.50 / -0.57 / -0.26 / -0.29 / -0.20,0 of 18
GFDLNEYGIS,VIYADGRRTAYSDSVK,GQVAGTFDS,-0.49 / -0.70 / -0.58 / -0.83 / -0.78 / -0.96,0 of 18
GFDLEDYGIS,VIYADGRRTFYADSVK,GKVAGTFDV,-0.74 / -0.98 / -0.92 / -1.21 / -0.92 / -0.89,0 of 18
GFDLDEYGIS,VIYADGQRTFYADSVK,GELAGTFDS,-0.41 / -0.19 / -0.36 / -0.52 / -0.55 / -0.43,1 of 18 (1.94)
GFDLNEYGIS,VIYADGSRTVYSDSVK,GNQAGTFDV,-0.33 / -0.21 / -0.35 / -0.60 / -0.60 / -0.36,0 of 18
GFDLNEYGIS,VIYADGRRTFYTDSVK,GANAGTFDK,-1.02 / -0.33 / -1.02 / -0.98 / -1.52 / -1.10,0 of 18
GFDLNEYGIS,VIYADGSRTFYSDSVK,GQTAGTFDI,-0.37 / -0.19 / -0.21 / -0.55 / -0.27 / -0.50,0 of 18
GFDLEDYGIS,VIYADGRRTAYADSVK,GNVAGTFDS,-0.60 / -0.78 / -0.86 / -0.46 / -0.94 / -0.66,0 of 18
GFDINEYGIS,VIYADGRRTFYADSVK,GQTAGTFDE,-0.23 / -0.78 / -0.45 / -0.39 / -0.28 / -0.50,0 of 18

Repeated from above, the 3 best binders with a signal in all replicates:

| CDR-H1 | CDR-H2 | CDR-H3 | log10 Kd (nM) by replicate | control signals |
|---|---|---|---|---|
| GFDLNEYGIS | VIYADGRRTFYTDSVK | GANAGTFDK | -1.02 / -0.33 / -1.02 / -0.98 / -1.52 / -1.10 | 0 of 18 |
| GFDLEDYGIS | VIYADGRRTFYADSVK | GKVAGTFDV | -0.74 / -0.98 / -0.92 / -1.21 / -0.92 / -0.89 | 0 of 18 |
| GFDLNEYGIS | VIYADGQRTFYSDSVK | GEIAGTFDS | -0.72 / -0.77 / -0.94 / -0.98 / -1.00 / -0.62 | 0 of 18 |

Background: pairings of all heavy chain designs with three empty control strains gave a value in 1% of cases (median 2.08, 5th percentile 0.84). Values in that range, when seen in few replicates, are hard to tell from nonspecific mating. For each scFv, signals with the empty controls are counted beside the result, with their mean in brackets.
The range of this assay differs from that of the first round, and the authors advise against merging the two.
Of ten entries with the parent sequence, four were seen in most replicates (averages 0.34 to 2.37), three in one and three in none, so single entries are noisy.

Reference: Li et al. 2023, doi:10.1038/s41467-023-39022-2. File: FLAb, binding data.